Results reported in patent US8729110B1, “2-thio-1,3,4-oxadiazoles derivatives as sphingosine-1 phosphate receptors modulators” (Allergan, Inc., priority 2012, dated 2014).

Amino acid sequences for entries named in this document (tags omitted).
UniProt P21453, whole entry: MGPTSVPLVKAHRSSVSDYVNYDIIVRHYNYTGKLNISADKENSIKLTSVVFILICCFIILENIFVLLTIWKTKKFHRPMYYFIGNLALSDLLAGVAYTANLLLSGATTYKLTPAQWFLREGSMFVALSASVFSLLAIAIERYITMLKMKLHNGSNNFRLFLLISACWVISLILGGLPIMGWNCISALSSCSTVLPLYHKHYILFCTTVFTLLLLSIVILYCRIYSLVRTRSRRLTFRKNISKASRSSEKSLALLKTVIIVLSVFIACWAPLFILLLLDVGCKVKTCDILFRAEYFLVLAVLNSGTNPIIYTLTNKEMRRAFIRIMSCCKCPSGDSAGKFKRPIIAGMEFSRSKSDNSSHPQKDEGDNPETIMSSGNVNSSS

Biological target: human S1P1 receptor (Homo sapiens, UniProt P21453)
Assay: GTP γ35S binding assay for S1P1 activity
Conditions: read-out: S1P1 EC50; activity potency, S1P1 receptor from GTP γ35S binding; 5 μg membrane protein; test compounds 0.08 to 5,000 nM; 30 min at 25° C.
Experimental: Compounds were synthesized and tested for S1P1 activity using the GTP γ^35S binding assay. These compounds may be assessed for their ability to activate or block activation of the human S1P1 receptor in cells stably expressing the S1P1 receptor.
GTP γ^35S binding was measured in the medium containing (mM) HEPES 25, pH 7.4, MgCl2 10, NaCl 100, dithitothreitol 0.5, digitonin 0.003%, 0.2 nM GTP γ^35S, and 5 μg membrane protein in a volume of 150 μl. Test compounds were included in the concentration range from 0.08 to 5,000 nM unless indicated otherwise. Membranes were incubated with 100 μM 5′-adenylylimmidodiphosphate for 30 min, and subsequently with 10 μM GDP for 10 min on ice. Drug solutions and membrane were mixed, and then reactions were initiated by adding GTP γ^35S and continued for 30 min at 25° C. Reaction mixtures were filtered over Whatman GF/B filters under vacuum, and washed three times with 3 mL of ice-cold buffer (HEPES 25, pH7.4, MgCl2 10 and NaCl 100). Filters were dried and mixed with scintillant, and counted for ^35S activity using a β-counter. Agonist-induced GTP γ^35S binding was obtained by subtracting that in the absence of agonist. Binding data were analyzed using a non-linear regression method. In case of antagonist assay, the reaction mixture contained 10 nM […] in the presence of test antagonist at concentrations ranging from 0.08 to 5000 nM.

Cc1ccc(C(C)Sc2nnc(-c3ccc(CNCCCP(=O)(O)O)cc3)o2)cc1C (stereo not shown)
EC50: 1050 nM
